Literature values as cited in patent US5476933A, “Azepine synthesis via a diels-alder reaction” (priority 1994, dated 1995).

Tested on: neurons in brain ischemia
Conditions: literature; cited from earlier work

| SMILES | neuroprotective efficacy, in words |
| --- | --- |
| CNC1(c2ccccc2Cl)CCCCC1=O (centres unmarked) [ketamine] | neuroprotective efficacy both in vitro and in vivo |
| COc1ccc2c(c1)[C@]13CCCC[C@@H]1[C@H](C2)N(C)CC3 [dextromethorphan] | neuroprotective efficacy both in vitro and in vivo |
